# From patent US20090136537A1, “Lipopeptide compositions and methods of use therof” (priority 2005, published 2009)
# Assay: UV absorbance spectroscopy, A280/A350 ratio as indicator of solubility
# Assay type: physicochemical
# Settings: for A280/A350 ratio F106: lipopeptide 1 mg/mL in F106, diluted from 20 mg/mL DMSO stock; for A280/A350 ratio F111: lipopeptide 1 mg/mL in F111, diluted from 20 mg/mL DMSO stock
# Procedure: UV absorbance spectroscopy UV absorbance measurements were performed to determine the peptide concentration and the A280/A350 ratio. For Pam3Cys.M2e (FIG. 1) the peptide concentration was determined using the following equation.
# To determine the effect of polysorbate-80 (PS-80) and hydroxypropyl-ÿ-cyclodextrin (HPBCD) on the solubility of a composition comprising a lipopeptide (Pam3Cys) and an antigen (M2e) (the Pam3Cys.M2e fusion protein), four formulations (the components of which are shown in the Table 1, supra) were prepared, each containing 1 mg/mL Pam3Cys.M2e. Pam3Cys.M2e was dispensed into each formulation at room temperature and mixed by vortexing. After mixing, the UV absorbance spectrum of Pam3Cys.M2e was determined in each formulation, compared to the same formulation without Pam3Cys.M2e as the blank. The UV absorbance of Pam3Cys.M2e at 280 nm is due entirely to the presence of tryptophan in the peptide sequence. […] Therefore, a higher A280/A350 absorbance ratio is indicative of higher solubility.
Structure (SMILES),A280/A350 ratio F106,A280/A350 ratio F111
CCCCCCCCCCCCCCCC(=O)N[C@@H](CSCC(COC(=O)CCCCCCCCCCCCCCC)OC(=O)CCCCCCCCCCCCCCC)C(=O)N[C@@H](CCC(=O)O)C(=O)N[C@@H](C)C(=O)N[C@@H](CCC(=O)O)C(=O)N1CCC[C@H]1C(=O)N1CCC[C@H]1C(=O)N[C@@H](Cc1ccccc1)C(=O)NCC(=O)N[C@@H](CC(=O)O)C(=O)N[C@@H](CO)C(=O)N[C@@H](Cc1ccc(O)cc1)C(=O)N[C@H](C(=O)N[C@H](C(=O)N[C@H](C(=O)NCC(=O)N[C@H](C(=O)N[C@@H](CCC(=O)O)C(=O)N1CCC[C@H]1C(=O)N[C@@H](CCC(N)=O)C(=O)N[C@@H](CCC(N)=O)C(=O)N[C@@H](CC(C)C)C(=O)N[C@@H](CCCCN)C(=O)N[C@@H](CC(C)C)C(=O)N[C@@H](CC(N)=O)C(=O)N[C@@H](Cc1c[nH]c2ccccc12)C(=O)N[C@@H](Cc1ccccc1)C(=O)N[C@@H](CCCCN)C(=O)N[C@@H](CCCCN)C(=O)O)C(C)C)[C@@H](C)CC)[C@@H](C)CC)[C@@H](C)CC (stereo partly drawn) [Pam3Cys.DEN.1],11.8,14.7
CCCCCCCCCCCCCCCC(=O)N[C@@H](CSCC(COC(=O)CCCCCCCCCCCCCCC)OC(=O)CCCCCCCCCCCCCCC)C(=O)N[C@@H](CCC(=O)O)C(=O)N[C@@H](CCSC)C(=O)N[C@@H](CCC(=O)O)C(=O)N1CCC[C@H]1C(=O)N1CCC[C@H]1C(=O)N[C@@H](Cc1ccccc1)C(=O)NCC(=O)N[C@@H](CC(=O)O)C(=O)N[C@@H](CO)C(=O)N[C@@H](Cc1ccc(O)cc1)C(=O)N[C@H](C(=O)N[C@H](C(=O)N[C@H](C(=O)NCC(=O)N[C@@H](CCSC)C(=O)NCC(=O)N[C@@H](CC(=O)O)C(=O)N[C@@H](CCCCN)C(=O)N[C@@H](CCC(N)=O)C(=O)N[C@H](C(=O)N[C@@H](CC(N)=O)C(=O)N[C@@H](Cc1c[nH]cn1)C(=O)N[C@@H](Cc1c[nH]cn1)C(=O)N[C@@H](Cc1c[nH]c2ccccc12)C(=O)N[C@@H](Cc1c[nH]cn1)C(=O)N[C@@H](CCCCN)C(=O)N[C@@H](C)C(=O)O)[C@@H](C)CC)C(C)C)C(C)C)[C@@H](C)CC (stereo partly drawn) [Pam3Cys.JEE.1],27.1,31.8
CCCCCCCCCCCCCCCC(=O)N[C@@H](CSCC(COC(=O)CCCCCCCCCCCCCCC)OC(=O)CCCCCCCCCCCCCCC)C(=O)N[C@@H](CCC(=O)O)C(=O)N[C@@H](CC(C)C)C(=O)N[C@@H](CCC(=O)O)C(=O)N1CCC[C@H]1C(=O)N1CCC[C@H]1C(=O)N[C@@H](Cc1ccccc1)C(=O)NCC(=O)N[C@@H](CC(=O)O)C(=O)N[C@@H](CO)C(=O)N[C@@H](Cc1ccc(O)cc1)C(=O)N[C@H](C(=O)N[C@H](C(=O)N[C@H](C(=O)NCC(=O)N[C@@H](CCCNC(=N)N)C(=O)NCC(=O)N[C@@H](CCC(=O)O)C(=O)N[C@@H](CCC(N)=O)C(=O)N[C@@H](CCC(N)=O)C(=O)N[C@H](C(=O)N[C@@H](CC(N)=O)C(=O)N[C@@H](Cc1c[nH]cn1)C(=O)N[C@@H](Cc1c[nH]cn1)C(=O)N[C@@H](Cc1c[nH]c2ccccc12)C(=O)N[C@@H](Cc1c[nH]cn1)C(=O)N[C@@H](CCCCN)C(=O)N[C@@H](CO)C(=O)O)[C@@H](C)CC)C(C)C)C(C)C)[C@@H](C)CC (stereo partly drawn) [Pam3Cys.WNE.1],6.8,6.4
